Source: patent US9458172B2, “Pyridinyl and pyrimidinyl sulfoxide and sulfone derivatives” (priority 2012, dated 2016)

Sequences of proteins named here, by UniProt entry; tags and fusion partners are left off. A change or cut given only in a name is not applied to a line headed by its entry.
UniProt P43490: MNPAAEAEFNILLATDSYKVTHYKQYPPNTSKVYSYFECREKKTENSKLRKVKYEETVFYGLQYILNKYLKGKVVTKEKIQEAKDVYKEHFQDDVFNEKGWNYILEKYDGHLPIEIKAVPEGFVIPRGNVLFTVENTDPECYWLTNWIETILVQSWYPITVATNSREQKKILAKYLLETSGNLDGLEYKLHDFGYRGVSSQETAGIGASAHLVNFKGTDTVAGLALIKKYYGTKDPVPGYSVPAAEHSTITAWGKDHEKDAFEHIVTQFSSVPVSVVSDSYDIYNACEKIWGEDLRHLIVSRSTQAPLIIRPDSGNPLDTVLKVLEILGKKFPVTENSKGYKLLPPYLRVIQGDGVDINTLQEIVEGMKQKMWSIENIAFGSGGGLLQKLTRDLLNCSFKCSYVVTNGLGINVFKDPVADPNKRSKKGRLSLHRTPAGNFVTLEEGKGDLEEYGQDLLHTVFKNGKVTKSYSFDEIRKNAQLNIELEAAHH

Target: NAMPT (Homo sapiens (Human), UniProt P43490)
Test: Biochemical Inhibition Assay (NAMPT enzymatic reaction, NMN quantified by mass spectrometry)
Conditions: 33 nM recombinant His-tagged NAMPT, 1 μM NAM, 30 min at rt
Procedure: Assay 1: Biochemical Inhibition Assay
NAMPT protein purification. Recombinant His-tagged NAMPT was produced in E. coli cells, purified over a Ni column, and further purified over a size-exclusion column by XTAL Biostructures.
The NAMPT Enzymatic Reaction. The NAMPT enzymatic reactions were carried out in Buffer A (50 mM Hepes pH 7.5, 50 mM NaCl, 5 mM MgCl2, and 1 mM THP) in 96-well V-bottom plates. The compound titrations were performed in a separate dilution plate by serially diluting the compounds in DMSO to make a 100× stock. […] The compound and enzyme mixture was incubated for 15 min at rt, then 10 μL of 10× substrate and co-factors in Buffer A were added to the test well to make a final concentration of 1 μM NAM, […] 5-Phospho-D-ribose 1-diphosphate (PRPP), and 2.5 mM Adenosine 5′-triphosphate (ATP). The reaction was allowed to proceed for 30 min at rt, then was quenched with the addition of 11 μL of a solution of formic acid and L-Cystathionine to make a final concentration of 1% formic acid and 10 μM L-Cystathionine. Background and signal strength was determined by addition (or non-addition) of a serial dilution of NMN to a pre-quenched enzyme and cofactor mix.
Quantification of NMN. A mass spectrometry-based assay was used to measure the NAMPT reaction product, β-nicotinamide mononucleotide (NMN), and the internal control (L-Cystathionine). NMN and L-Cystathionine were detected using the services of Biocius Lifesciences with the RapidFire system. In short, the NMN and L-Cystathionine were bound to a graphitic carbon cartridge in 0.1% formic acid, eluted in 30% acetonitrile buffer, and injected into a Sciex 4000 mass spectrometer. The components of the sample were ionized with electrospray ionization and the positive ions were detected. […] The fragments are quantified and the analyzed by the following method.
Determination of IC50 Values. First, the NMN signal was normalized to the L-Cystathionine signal by dividing the NMN signal by the L-Cystathionine signal for each well. The signal from the background wells were averaged and subtracted from the test plates.

| pIC50 | Compound |
| --- | --- |
| 7.27 | O=C(NCc1ccc(S(=O)(=O)c2cccc(OC(F)(F)F)c2)cn1)c1cnc2[nH]ncc2c1 [Example 19, 1H-Pyrazolo[3,4-b]pyridine-5-carboxylic acid [5-(3-trifluoromethoxy-benzenesulfonyl)-pyridin-2-ylmethyl]-amide] |
| 7.93 | O=C(NCc1ccc(S(=O)(=O)c2cccc(OC(F)(F)F)c2)cn1)c1cc2cnccc2[nH]1 [Example 21, 1H-Pyrrolo[3,2-c]pyridine-2-carboxylic acid [5-(3-trifluoromethoxy-benzenesulfonyl)-pyridin-2-ylmethyl]-amide] |
| 8.23 | O=C(NCc1ccc(S(=O)(=O)c2cc(F)cc(N3CCOCC3)c2)cn1)c1cc2ccncc2o1 [Example 88, Furo[2,3-c]pyridine-2-carboxylic acid [5-(3-fluoro-5-morpholin-4-yl-benzenesulfonyl)-pyridin-2-ylmethyl]-amide] |
| 8.23 | O=C(NCc1ccc(S(=O)(=O)c2ccc(N3CCOCC3)cc2)cn1)N1Cc2ccncc2C1 [Example 97, 1,3-Dihydro-pyrrolo[3,4-c]pyridine-2-carboxylic acid [5-(4-morpholin-4-yl-benzenesulfonyl)-pyridin-2-ylmethyl]-amide] |
| 7.26 | O=C(NCc1ccc(S(=O)(=O)C2CCN(C3COC3)CC2)cn1)c1cc2ccncc2o1 [Example 103, Furo[2,3-c]pyridine-2-carboxylic acid [5-(1-oxetan-3-yl-piperidine-4-sulfonyl)-pyridin-2-ylmethyl]-amide] |
| 7.27 | O=C(NCc1ccc(S(=O)(=O)C2CCN(C3CCOCC3)CC2)cn1)c1cc2ccncc2o1 [Example 105, Furo[2,3-c]pyridine-2-carboxylic acid {5-[1-(tetrahydro-pyran-4-yl)-piperidine-4-sulfonyl]-pyridin-2-ylmethyl)-amide] |
| 7.93 | CCCn1cc(S(=O)(=O)c2ccc(CNC(=O)N3Cc4ccncc4C3)nc2)cn1 [Example 140, N-[[5-(1-propylpyrazol-4-yl)sulfonyl-2-pyridyl]methyl]-1,3-dihydropyrrolo[3,4-c]pyridine-2-carboxamide] |
| 7.58 | COc1cc(F)cc(S(=O)(=O)c2ccc(CNC(=O)c3cnc4[nH]ncc4c3)nc2)c1 [Example 144, N-[[5-(3-fluoro-5-methoxy-phenyl)sulfonyl-2-pyridyl]methyl]-1H-pyrazolo[3,4-b]pyridine-5-carboxamide] |
| 8.25 | CCN(C)c1ncc(S(=O)(=O)c2ccc(CNC(=O)c3cc4ccncc4o3)nc2)s1 [Example 146, N-[[5-[2-[ethyl(methyl)amino]thiazol-5-yl]sulfonyl-2-pyridyl]methyl]furo[2,3-c]pyridine-2-carboxamide] |
| 7.27 | CCn1cc(S(=O)(=O)c2ccc(CNC(=O)c3cc4ccncc4o3)nc2)cn1 [Example 176, N-[[5-(l-ethylpyrazol-4-yl)sulfonyl-2-pyridyl]methyl]furo[2,3-c]pyridine-2-carboxamide] |

pIC50: −log10 of the molar value.
